Results taken from article PMC8914261, “Discovery and Characterization of the Naturally Occurring Inhibitors Against Human Pancreatic Lipase in Ampelopsis grossedentata” (Frontiers in Nutrition, 2022).

Molecular target: T1, human pancreatic lipase (hPL) (Homo sapiens, UniProt P16233)
T1 construct: made in house
T1 sequence (P16233 17-465): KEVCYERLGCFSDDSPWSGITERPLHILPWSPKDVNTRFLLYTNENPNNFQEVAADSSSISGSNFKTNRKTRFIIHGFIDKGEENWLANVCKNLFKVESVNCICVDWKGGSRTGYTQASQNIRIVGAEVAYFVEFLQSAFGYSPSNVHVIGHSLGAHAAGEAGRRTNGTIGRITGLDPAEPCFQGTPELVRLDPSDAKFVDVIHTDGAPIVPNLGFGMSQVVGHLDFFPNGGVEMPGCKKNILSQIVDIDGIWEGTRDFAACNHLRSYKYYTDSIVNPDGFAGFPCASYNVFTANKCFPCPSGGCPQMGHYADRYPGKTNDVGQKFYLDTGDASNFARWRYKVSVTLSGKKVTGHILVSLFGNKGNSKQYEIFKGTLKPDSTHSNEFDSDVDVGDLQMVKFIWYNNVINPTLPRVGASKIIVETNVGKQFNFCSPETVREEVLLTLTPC
Assay: hPL inhibition assay (hPL-catalyzed DDAO-ol hydrolysis, fluorescence)
Assay type: biochemical
Conditions: DDAO-ol 20 μM as substrate, 3 min pre-incubation at 37°C

Myricitrin
IC50: > 100 µM
